Measurements reported in patent publication US20080318905A1, “Prodrugs and methods of making and using the same” (priority 2006, published 2008).

The chains behind the UniProt entries cited, without tags or fusion partners.
UniProt P35372, whole entry: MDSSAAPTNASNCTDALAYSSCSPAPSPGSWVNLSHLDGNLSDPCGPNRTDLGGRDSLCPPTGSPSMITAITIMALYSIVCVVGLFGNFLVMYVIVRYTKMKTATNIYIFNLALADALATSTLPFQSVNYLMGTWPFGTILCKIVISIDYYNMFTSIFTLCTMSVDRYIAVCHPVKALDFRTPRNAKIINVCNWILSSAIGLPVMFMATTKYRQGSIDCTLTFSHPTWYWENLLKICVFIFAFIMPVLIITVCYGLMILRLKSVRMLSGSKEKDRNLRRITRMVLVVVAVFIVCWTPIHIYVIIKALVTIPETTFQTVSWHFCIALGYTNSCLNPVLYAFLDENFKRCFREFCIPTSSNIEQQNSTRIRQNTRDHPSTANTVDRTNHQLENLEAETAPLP

Molecular target: human mu receptor (Homo sapiens, UniProt P35372)
Assay: Human mu receptor binding (IC50, Ki)

Compound | Ki [nM] | IC50 [nM]
CN1CC[C@]23CCCC[C@H]2[C@H]1Cc1ccc(O)cc13 [levorphanol, Levorphanol, reference compound] | 0.22 | 
CN1CCC23CCCCC2C1Cc1ccc(O)cc13 (centres unmarked) [levorphanol tartrate, reference compound] |  | 0.52

Where a name gives a salt, the structure may show the parent alone.
